Results on two compounds are retold here after ChEMBL document CHEMBL3612054 (Bioorg Med Chem, 2015).

Values after ≈ are worked out from the molar mass of the structure shown.

The nature of data set [1]: Solubility of the compound in 10 mM phosphate buffer at pH 7.4 after 90 mins by LC/MS analysis. In kind it is physicochemical.
Data set [2] is described as follows: Solubility of the compound in 10 mM phosphate buffer at pH 3 after 90 mins by LC/MS analysis. In kind it is physicochemical.

In turn, `CC(C)[C@@H](CN1CC[C@@](C)(c2cccc(F)c2)[C@@H](C)C1)NC(=O)[C@H]1Cc2ccc(O)cc2CN1` returned a solubility at […] in data set [1] (phosphate buffer, pH 7.4) of 10 µM (≈ 4.68 µg/mL). For the same compound, in data set [2], the solubility came to 47 µM (≈ 22 µg/mL).
For `CC(C)[C@@H](CN1CCC(C)(c2cccc(O)c2)CC1)NC(=O)[C@H]1Cc2ccc(O)cc2CN1`, the solubility in data set [1] (buffer, pH 7.4, […]) was 44 µM (≈ 19.9 µg/mL); in data set [2], 101 µM (≈ 45.6 µg/mL).
